scFv variants of Ab-91 (heavy chain) against a SARS-CoV-2 spike peptide

The measurements come from Engelhart et al. 2022 (doi:10.1038/s41597-022-01779-4) through the FLAb antibody collection.

The target is the same throughout: PDVDLGDISGINAS, from the HR2 region of SARS-CoV-2 spike.

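The library (AAYL51) carries one to three amino acid substitutions per variant, with no insertions or deletions. Affinity was read by AlphaSeq, a pooled yeast mating assay with surface-displayed partners. The frequency of each diploid, read from paired DNA barcodes, reflects how well the two displayed proteins bind. The ratio of observed to expected reads was calibrated, replicate by replicate, on BCL2-family standards whose Kd was known from biolayer interferometry. Each pool was mated in three replicate cultures.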

Parent: Ab-91, a human scFv built as VL, a (GGGGS)3 linker, VH. Only the CDRs of the heavy chain vary.
VL: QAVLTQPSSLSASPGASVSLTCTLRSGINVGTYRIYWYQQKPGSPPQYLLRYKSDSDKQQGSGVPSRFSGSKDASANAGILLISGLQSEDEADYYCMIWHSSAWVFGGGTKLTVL
VH: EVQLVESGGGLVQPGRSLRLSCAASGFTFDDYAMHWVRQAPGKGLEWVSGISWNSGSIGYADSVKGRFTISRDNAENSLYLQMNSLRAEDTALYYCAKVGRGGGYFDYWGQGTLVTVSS

Variants are written as CDR1, CDR2 and CDR3 of the heavy chain (limits as in the source). Parent: GFTFDDYAMH, GISWNSGSIGYADSVK, VGRGGGYFDY. This list gathers variants with a substitution at S63 (VH, numbered from residue 1). Each Kd is an estimate from the mating assay, the geometric mean of the replicates in which the pair was seen; lower is stronger. Where no diploid with the target was found in any replicate, the entry reads "no signal": below detection, most likely a poor binder, though not proof of it. In this assay the parent's reference entry averaged 72 nM; its copy inside this library read 7.5 nM. Three control strains display no target. For library AAYL51, 21% of the pairings with them gave a signal, with a median of 34 µM and one signal in twenty below 1.8 µM, so weak values seen in few replicates may be background.

| CDR-H1 | CDR-H2 | CDR-H3 | Kd (apparent) | replicates with signal |
|---|---|---|---|---|
| RFTFDDYAMH | MISWNSGSIGYADCVK | VGRGGGYFDY | no signal | 0 of 3 |
| GFTFDDYAMH | GISWNSGSIGYADVDK | VGRGGGYVDY | no signal | 0 of 3 |
| GCWFDDYAMH | GISWNSGSIGYADAVK | VGRGGGYFDY | no signal | 0 of 3 |
| GFTFDDYAMH | GISQNSGSIGYADRVK | VGRGGGYFDY | no signal | 0 of 3 |
| GFTFDDYEMH | GISWNSGSIGYADPVK | VGRGGGYFDY | no signal | 0 of 3 |
| GFTFDDYAMH | GISWNSGIIGYADDVK | YGRGGGYFDY | no signal | 0 of 3 |
| GFTFDDYAMH | GISWNSHSIGYADTVA | VGRGGGYFDY | no signal | 0 of 3 |
| GFTFDDYAMH | SISWNSGSIGYADEVK | VGRGGGYSDY | 1.8 mM | 1 of 3 |
| GFTFDDYAMH | GISWNSGSIGYVDLVK | VGRGKGYFDY | no signal | 0 of 3 |
| GFTFDDYAMH | GISWNSGSIGYADKVK | VGRGGGYFRY | 140 nM | 3 of 3 |
| GFTFDDYAMH | GISWNSGSIGLADHVP | VGRGGGYFDY | no signal | 0 of 3 |
| GFTFDDYAMH | GISWISGSIGYADCVK | VGRGGEYFDY | no signal | 0 of 3 |
| GFTFDDYSMH | GISWNSGSIGKADEVK | VGRGGGYFDY | no signal | 0 of 3 |
| GFTFDDYAMH | GISWNSGSIGYADCVK | VGMFGGYFDY | no signal | 0 of 3 |
| GFTFDDYAMH | GISDNSGSIGYADVVK | VGRGGGIFDY | 260 nM | 2 of 3 |
| GFTFDDYAMH | GISVNSGSIGYADVVK | VGRGGGYFDY | 690 nM | 3 of 3 |
| GFTFDDYAMH | GRSWNSGSIGYADMVK | VGRGGGYFDY | 910 µM | 1 of 3 |
| GFTFDDYAMH | GISWNSGSIGYADYVK | VGRGGGNFDY | no signal | 0 of 3 |
| GFTFDDYAMH | GISWNSGSIGYADAVK | VGRGGGYFDY | 54 µM | 2 of 3 |
| GFTFDDYAMH | GISWNSGSHGYADEVK | VGRGGVYFDY | no signal | 0 of 3 |
| GFTFDDYAMH | GISWNSGSIGYADFVK | VKRGGWYFDY | 68 µM | 3 of 3 |
| GFTFDDYAMG | GISWNSCSIGYADLVK | VGRGGGYFDY | 13 µM | 1 of 3 |
| GFTFEDYAMH | GISWNSGSIGYADAVK | VGRGGGYFDY | 3.4 nM | 3 of 3 |
| GFTFDDYAMH | AISWNSGSIGYADKVK | HGRGGGYFDY | 41 µM | 2 of 3 |
| GFTFDDYAMH | GISWNSGSIGYADYVK | VGRGGGYFDY | 13 nM | 3 of 3 |
| GFTFDDYAMW | GISWNSGSIGYADIVL | VGRGGGYFDY | no signal | 0 of 3 |
| GFTVDDYAMH | GISWNSGSIGYADQVK | VGRGGGYFPY | 740 µM | 3 of 3 |
| GFTFDDYAMH | GISWNSGSIGYADIVK | QGRGGGYFDY | 55 nM | 3 of 3 |
| GFTFDDYAMH | GISWNSGKIGYADAVK | VGRGGGYFDY | 29 µM | 3 of 3 |
| GFTFDDYAMH | GISWNSGSIGYADQVK | VGRGGGYFDP | 6.5 nM | 3 of 3 |
| GFTFDDYKMH | GISWNSGSIGYADPVK | VGRGGGCFDY | no signal | 0 of 3 |
| GFTFDDYAMM | GISWNSGSGGYADLVK | VGRGGGYFDY | no signal | 0 of 3 |
| GFTFDDYAMH | GISWNSGMILYADIVK | VGRGGGYFDY | 180 µM | 3 of 3 |
| GFTFKDYAMH | GISWNSGSIGYADAVK | VGRGGGYFDY | 1.2 nM | 3 of 3 |
| GFTFDDYAMH | GISWNSGSWCYADAVK | VGRGGGYFDY | 53 µM | 3 of 3 |
| SFTFDQYAMH | GISWNSGSIGYADGVK | VGRGGGYFDY | no signal | 0 of 3 |
| GFTFDDYAMM | GISWNSGLIGYADPVK | VGRGGGYFDY | no signal | 0 of 3 |
| GFTFDDYTMA | GISWNSGSIGYADRVK | VGRGGGYFDY | no signal | 0 of 3 |
| GFTGDDYAMH | GISWNSGSIGYADGVK | VGRGGGYFDY | no signal | 0 of 3 |
| GFTFDDYAQH | GISWNSGSIMYADYVK | VGRGGGYFDY | 50 µM | 1 of 3 |
| GFTVDDYAMH | HISWNSGSIGYADDVK | VGRGGGYFDY | no signal | 0 of 3 |
| GFTFDDYAMH | GISWMSGSIGYADDVK | GGRGGGYFDY | 240 µM | 3 of 3 |
| GFTFDDYAMF | GISWNSGSIGYAHHVK | VGRGGGYFDY | no signal | 0 of 3 |
| GFTFDDYAMH | GISANSGSIGYDDNVK | VGRGGGYFDY | 12 nM | 3 of 3 |
| GFTFDDYAMH | GISWNSGSIGLAYTVK | VGRGGGYFDY | no signal | 0 of 3 |
| GFTFDDYAMH | GISWGSGSIGYATGVK | VGRGGGYFDY | 36 µM | 3 of 3 |
| GFTFDDYAMH | GISWNSGSIGYADCVD | VGRGGNYFDY | 14 nM | 3 of 3 |
| GFTFDDWAMM | GISWNSGSIGYADRVK | VGRGGGYFDY | 68 µM | 1 of 3 |
| GFTGDDYAMH | GISWNSGSIGYADNVK | VGRGGGWFDY | 1.2 mM | 2 of 3 |
| GFTRDDYPMH | GISWNSGSIGYADRVK | VGRGGGYFDY | no signal | 0 of 3 |
| GFTFDDYCMH | GISWNSGSIGYADKVK | VGRGGGYTDY | 120 µM | 3 of 3 |
| GFTFDDYAMH | GISWNSGPIGYADKRK | VGRGGGYFDY | no signal | 0 of 3 |
| GITFDDYAMH | GISWNSGSIGYADTQK | VGRGGGYFDY | 27 µM | 2 of 3 |
| GFTFDDYAMH | GISWNSGSIGYADFVK | VFRGGGYFWY | 1.3 µM | 2 of 3 |
| GFTFDDYNMH | GISFNSGSIGYADHVK | VGRGGGYFDY | 650 µM | 1 of 3 |
| GFTFDDYAMH | GISGNSGSIGYADLVK | VGRGGGYPDY | 7.3 nM | 3 of 3 |
| GFTFDDHAMH | GISWNSGSIGYADDVK | VGRGGGYFDY | 1.2 µM | 3 of 3 |
| GFTFDDCAMH | GISWNSGSIGYADFVK | VGRNGGYFDY | 85 µM | 2 of 3 |
| GFRFDDYAMH | GESWNSGSIGYADRVK | VGRGGGYFDY | 8.9 µM | 1 of 3 |
| GFTFDDYAMS | GISWNSGSIGYADKVK | VGRGGGYFHY | no signal | 0 of 3 |
| GFTFDDYAMH | GISWNSGSIGYARTVK | VIRGGGYFDY | 450 nM | 3 of 3 |
| GFTFDDYAMH | GISWNSGSIGYADPVK | VFRFGGYFDY | no signal | 0 of 3 |
| GFTFDDYAMH | GISWNSGSIGYADGVH | VGRGGGYWDY | no signal | 0 of 3 |
| GFTFDDYAMH | GISWNSGSSGYADNVK | VGHGGGYFDY | 73 µM | 1 of 3 |
| GFTFDDYAMH | GISWNSGSNRYADIVK | VGRGGGYFDY | no signal | 0 of 3 |
| GFTFDDYAMH | GISWNSGSIGYADGVK | TGRGGGRFDY | 23 µM | 1 of 3 |
| GFTFDDYAMH | GISWNSGSIGYQDAVK | VNRGGGYFDY | 1.3 µM | 3 of 3 |
| GFTFDDYAMH | GIFWLSGSIGYADLVK | VGRGGGYFDY | 8.1 µM | 1 of 3 |
| GRTFDDYAMH | GISWNSGSIGYADQVK | VGRGGGYFHY | 50 µM | 2 of 3 |
| GFTFDKYSMH | GISWNSGSIGYADEVK | VGRGGGYFDY | 9.4 nM | 3 of 3 |
| GFTFDDYAMH | GISWNSGSISYADRVK | VGRGGGYFDY | 24 µM | 2 of 3 |
| GFKFDDYAMH | GISWNSGSIGYADHVK | VGRGGGYFDY | 5.3 nM | 3 of 3 |
| GFTFDDYAMH | GISWNSGSIGYADQVK | VGRGGGYFDY | 210 µM | 1 of 3 |
| GFTFDDEAMH | GISWNSGSIGYADQVK | VGRGGGYFDY | 84 µM | 3 of 3 |
| GFTFDDYAMH | GISWNSGSIGYADQVK | VPRGGGYFHY | no signal | 0 of 3 |
| GSTFDDYAMH | GISWNSGSIGYADFVK | VGRGGGYFDY | no signal | 0 of 3 |
| GFTFNDYAMH | GISWNSGSIGIADGVK | VGRGGGYFDY | 270 nM | 3 of 3 |
| GFTFDDYAMH | GISWNSGGIGYADVVK | VGRGGGYFDY | no signal | 0 of 3 |

The last 5 entries again:

CDR-H1,CDR-H2,CDR-H3,Kd (apparent),replicates with signal
GFTFDDEAMH,GISWNSGSIGYADQVK,VGRGGGYFDY,84 µM,3 of 3
GFTFDDYAMH,GISWNSGSIGYADQVK,VPRGGGYFHY,no signal,0 of 3
GSTFDDYAMH,GISWNSGSIGYADFVK,VGRGGGYFDY,no signal,0 of 3
GFTFNDYAMH,GISWNSGSIGIADGVK,VGRGGGYFDY,270 nM,3 of 3
GFTFDDYAMH,GISWNSGGIGYADVVK,VGRGGGYFDY,no signal,0 of 3